# Yeast mating assay B: variants of the scFv Ab-14

Source: Li et al. 2023 (doi:10.1038/s41467-023-39022-2), MIT Lincoln Laboratory and A-Alpha Bio; data file from the FLAb repository.

Binding partner: SARS-CoV-2 spike HR2 peptide, sequence PDVDLGDISGINAS.

Parent scFv Ab-14: VH joined to VL by three GGGGS repeats. Changes lie in the light chain CDRs alone.
VH: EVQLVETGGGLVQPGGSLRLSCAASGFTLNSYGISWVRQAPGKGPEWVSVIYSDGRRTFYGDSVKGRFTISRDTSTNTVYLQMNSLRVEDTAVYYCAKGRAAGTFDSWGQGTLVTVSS
VL: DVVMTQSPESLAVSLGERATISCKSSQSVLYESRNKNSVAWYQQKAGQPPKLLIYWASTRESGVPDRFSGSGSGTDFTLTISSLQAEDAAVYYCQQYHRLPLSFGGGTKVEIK

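The variants were designed computationally from a first round of random CDR variants and then made and measured. Several design methods are mixed in this list. AlphaSeq pools MATa yeast showing the antibodies with MATalpha yeast showing the peptide. After mating in shaken culture at 30 °C for 16 h, diploids were selected and their barcode pairs sequenced. Read counts were normalised to the haploid input and turned into Kd by a linear fit to BCL2-family pairs of known affinity, for each replicate. Each pool was mated in six replicate cultures.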

The parent's light chain CDRs are KSSQSVLYESRNKNSVA, WASTRES, QQYHRLPLS; each variant's own CDRs replace them letter for letter. Affinities are written as log10 Kd with Kd in nM; a lower number is a better binder. Averages over replicates are reported, and they cover detected replicates only. "not detected" marks a missing value. The strain was present, yet no cells mated with the target were sequenced in any replicate, which points to weak or no binding. The authors averaged sequences with at least three values out of six and counted those with two or fewer as poor binders. Background: pairings of all light chain designs with three empty control strains gave a value in 4% of cases (median 2.64, 5th percentile 1.59). Values in that range, when seen in few replicates, are hard to tell from nonspecific mating. The control count says in how many pairings with the empty strains this scFv gave a signal. The parent sequence was in this pool as ten entries: three were never detected, three once, and four in most replicates, with averages from 0.34 to 2.37. Values of this round are not directly comparable with the first-round values of the same sequences.

CDR-L1,CDR-L2,CDR-L3,mean log10 Kd (nM),seen in,empty controls
KIAQSMAMTSHHINSVA,QSTTREE,QQYNRLPLA,0.34,6 of 6,0 of 18
KSSQSVLYESRNKNSVA,WAWTREE,QQYHRLPLS,2.62,1 of 6,0 of 18
KLSQATRLESRNKASVA,ENSTRES,QQYFRLPLS,-0.13,6 of 6,3 of 18
KFSQSVMMGDRNKNSVA,KASTRLS,QQYHRLPLS,0.71,6 of 6,1 of 18
KMSQSVLYESINKNHVA,EASTRCS,QQYHRLPLS,0.03,6 of 6,3 of 18
KSSQSVGYESENDNSVA,WASTRES,QQYHRLPLS,1.53,6 of 6,0 of 18
KVSQSVLYEQRNKNSVA,WASTRES,QQYHRLPLS,1.22,6 of 6,0 of 18
KSRQSVLSESRNKNSVA,WASTRES,QQYHRLPLS,2.38,4 of 6,0 of 18
MMSQVWGMGQRHRNNVA,QTSTREP,QQYDRLPLV,1.06,6 of 6,1 of 18
KIDQWKLGESVNKNSVA,NASTRMD,QQYHRLPLS,-0.27,6 of 6,1 of 18
MIDMEEAPNSQKASSIA,QGGLRAK,QQYNRLPLC,0.35,6 of 6,0 of 18
KSDQSVLYESGNKNSVA,MASTRES,QQYHRLPLS,1.02,6 of 6,1 of 18
KISQSVLYESRNKNNVA,DASTRES,QQYHRLPLS,-0.49,6 of 6,2 of 18
TISQSTLMTGLNRNSVA,QAEERIE,QQYHRLPLS,0.48,6 of 6,0 of 18
KLSQSNLYESRMKNSVA,NASTRLS,QQYHRLPLS,0.49,6 of 6,1 of 18
KISQSVLYESRNKNSVA,MASTRES,QQYHRLPLP,not detected,0 of 6,0 of 18
KLQNFSQNYNDIWNSIA,DESMKHT,QHYDRLPLV,2.54,6 of 6,2 of 18
KSSQSVSYESRNSESVA,WASTRES,QRYHRLPLD,2.44,1 of 6,0 of 18
KISQSVLYESRNKNSVA,WASTRES,QQYQRSPLS,1.27,6 of 6,2 of 18
KVSQSPLYESRNKNSVA,NASTRES,QQYHRLPLS,-0.29,6 of 6,1 of 18
KSPQSVLYESRNKNSVA,EASTRES,QQYHRLPLS,0.25,6 of 6,2 of 18
ILVQSWLYESRNKNSVA,GASTRES,QQYHRLPLI,1.84,5 of 6,0 of 18
TITGVMTQMSHSKNNVA,EVSERLD,QQYFRLPLE,0.82,6 of 6,1 of 18
KLENSNRWNYRDTNAVA,QASNRAA,QQYQRLPFL,0.73,6 of 6,1 of 18
KIGMTLNTLMHQKNNVA,DLVEREN,QQYYRLPLS,0.37,6 of 6,0 of 18
KSSVSVDFESRNKNSVA,GASTCES,QQYHRLPLS,0.53,6 of 6,0 of 18
KLQQGVLYESRNKNSVA,GASTRES,QQYHRLPLS,-0.11,6 of 6,0 of 18
KLMGSMQYESRNKNAVA,EASTRES,QQYHRLPLS,-0.24,6 of 6,0 of 18
HFDQTRQEGIQDKNSVA,QGSVVAS,QHYSKLPLS,1.62,6 of 6,0 of 18
KSSISVLYEDTNKNSVA,MASTRES,QQYHRLPLS,not detected,0 of 6,0 of 18
MITAMLRGVGRDKNSVA,NAQTREQ,QHYHRLPLS,2.78,1 of 6,1 of 18
MISQLYNMGQFAINSVA,QGSTRNQ,QQYDRLPLM,1.67,3 of 6,0 of 18
KFSQVVLYESRTKNSVA,NASTRES,QQYHRLPLS,-0.27,6 of 6,0 of 18
QLGAVYDMTSKNKNSVA,EQSTREN,QQYHRLPLS,0.55,6 of 6,0 of 18
HLSKPWQLGHPSTNAVA,NMDVLMT,QQYSRLPLS,0.88,6 of 6,1 of 18
KLSIMYQHTSRNKNNIA,ERSTREM,QQYHHLPLS,0.38,6 of 6,0 of 18
MISQLMNMGYFAINSVA,QASERSN,QQYDRLPLM,2.48,1 of 6,0 of 18
KLQQSTLYESRNKNSVA,QASTRES,QQYHRLPLS,-0.04,6 of 6,0 of 18
KSSQSELYESAAKNSVA,SAMQRMS,QQYHRLPLS,0.31,6 of 6,3 of 18
KISQMARVGSTHSNSIA,EEATRSD,QQYHRLPLA,0.41,6 of 6,1 of 18
ILSQSVLMGMHLKNSVA,QATMRFN,QQYDRLPLM,2.50,1 of 6,0 of 18
KFEHMDLYESRNKNSVA,SASQRSS,QQYHRLPLS,-0.37,6 of 6,0 of 18
KIGGVTNGISRNKNSVA,EQETRES,QQYNRLPLS,0.52,6 of 6,2 of 18
KLLQSWLYESRNKNSVA,NASQRES,QQYHRLPLS,-0.08,6 of 6,1 of 18
KSSTSYDYESRNENSVA,EASTREQ,QQYHRLPLS,0.02,6 of 6,0 of 18
KLSQSVDYEDRNKNSVA,NASQRES,QQYHRLPLS,0.05,6 of 6,1 of 18
SFSQSVLYESRQKNSVA,NASTRES,QQYHRLPLS,0.18,6 of 6,0 of 18
KSSQSVLYESRNKNSVA,WASTREL,SQYHGLPLK,2.83,1 of 6,0 of 18
LLSGMVEEQETRQQNIA,EVEFRCM,QQYSRLPLS,not detected,0 of 6,0 of 18
HLSQSMLYESRNKNSVA,NASQRES,QQYHRLPLS,0.00,6 of 6,2 of 18
RFTEHLLGLENKIYAIA,NATKTME,QQYFRLPFA,-0.35,6 of 6,0 of 18
KISGLQRFQQNAKNNIA,EMNRREE,QQYHRLPLS,-0.04,6 of 6,1 of 18
KSSQSVLYESRVKNSIA,WASTRES,QQYHRLPLS,not detected,0 of 6,0 of 18
QIAMAMYHGLNDNQNIA,DAMTYIK,QQYSRLPLF,1.29,6 of 6,1 of 18
SLYEAMQTGKLRTSNIA,DVNQQMR,QQYSRLPLM,0.28,6 of 6,0 of 18
KWSQSVDLESRNDNSVA,DASCRED,QQYHRLPLS,0.77,6 of 6,1 of 18
MFSQGVMVGWLTRNSVA,NSSTREN,QQYDRLPLS,0.91,6 of 6,1 of 18
KLDGSDQYESRNKNSVA,EASTRES,QAYHRLPLS,0.18,6 of 6,2 of 18

Excerpt, the final 4 entries:

CDR-L1,CDR-L2,CDR-L3,mean log10 Kd (nM),seen in,empty controls
SLYEAMQTGKLRTSNIA,DVNQQMR,QQYSRLPLM,0.28,6 of 6,0 of 18
KWSQSVDLESRNDNSVA,DASCRED,QQYHRLPLS,0.77,6 of 6,1 of 18
MFSQGVMVGWLTRNSVA,NSSTREN,QQYDRLPLS,0.91,6 of 6,1 of 18
KLDGSDQYESRNKNSVA,EASTRES,QAYHRLPLS,0.18,6 of 6,2 of 18